Drawing on ChEMBL document CHEMBL5042528, “Optimization of 2-Amino-4,6-diarylpyrimidine-5-carbonitriles as Potent and Selective A1 Antagonists” (J Med Chem, 2022), this text covers Ki for one compound.

The chains behind the UniProt entries cited, without tags or fusion partners.
UniProt P30542, whole entry: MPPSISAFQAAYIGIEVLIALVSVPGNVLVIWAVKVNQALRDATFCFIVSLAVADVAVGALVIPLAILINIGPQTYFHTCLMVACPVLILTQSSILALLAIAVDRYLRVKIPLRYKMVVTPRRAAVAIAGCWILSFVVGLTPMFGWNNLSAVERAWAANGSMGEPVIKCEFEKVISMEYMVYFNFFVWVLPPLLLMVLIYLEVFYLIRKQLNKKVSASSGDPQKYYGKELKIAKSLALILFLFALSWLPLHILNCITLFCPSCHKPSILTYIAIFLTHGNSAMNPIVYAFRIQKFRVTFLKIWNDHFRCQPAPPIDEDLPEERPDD

The target of the assay is Adenosine receptor A1 (Homo sapiens, UniProt P30542). Kind of assay: Displacement of [3H]DPCPX from A1 adenosine receptor (unknown origin) expressed in CHO cell membrane incubated for 60 mins at room temperature by NXT microplate scintillation counter analysis. It counts as cell membranes. A general note: Displacement assays read how much labelled ligand stays bound in the presence of the test substance.

Each structure is given as a SMILES string.

Broadly, the Ki is the dissociation constant of the complex between target and ligand, obtained from inhibition or displacement. Take `Nc1nc(-c2ccccc2)cc(-c2ccc3c(c2)OCO3)n1`: the inhibition constant (Ki) was found to be 0.538 µM.
